Measurements published in ChEMBL document CHEMBL1926507, “Discovery of a new class of bicyclic substituted hydroxyphenylmethanones as 17β-hydroxysteroid dehydrogenase type 2 (17β-HSD2) inhibitors for the treatment of osteoporosis” (Eur J Med Chem, 2012).

Legend:
[1] = biological target: T1, 17-beta-hydroxysteroid dehydrogenase type 2 (Homo sapiens) (UniProt P37059); test: Inhibition of human microsomal 17beta-HSD2 using [2,4,6,7-3H]E2 as substrate at 1 uM after 20 mins by radioflow detector
T1 sequence (whole entry): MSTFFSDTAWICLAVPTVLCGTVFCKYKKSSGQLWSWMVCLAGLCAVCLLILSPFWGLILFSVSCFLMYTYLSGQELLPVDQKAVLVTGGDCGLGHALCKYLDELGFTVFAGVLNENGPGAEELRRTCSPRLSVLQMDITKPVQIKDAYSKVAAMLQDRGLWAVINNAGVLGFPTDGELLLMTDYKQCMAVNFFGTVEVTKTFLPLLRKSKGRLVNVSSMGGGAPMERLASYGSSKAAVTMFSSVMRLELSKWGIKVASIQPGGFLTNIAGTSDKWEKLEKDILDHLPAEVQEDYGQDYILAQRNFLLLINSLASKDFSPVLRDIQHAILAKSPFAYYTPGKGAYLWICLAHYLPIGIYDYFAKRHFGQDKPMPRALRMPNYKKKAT
Procedure, shortened: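 Microsomal fraction from human placenta incubated at 37 °C for 20 min with NAD+ (1500 µM), inhibitor and unlabeled plus [2,4,6,7-3H]-E2 (final 500 nM). Phosphate buffer 50 mM with 20% glycerol and 1 mM EDTA. Inhibitor stocks made in DMSO. Reaction stopped with HgCl2 and extracted with ether. E2 and E1 separated by HPLC with radioflow detection. Values are the mean of three determinations.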

[2] = biological target: T2, 17-beta-hydroxysteroid dehydrogenase type 1 (Homo sapiens) (UniProt P14061); test: Inhibition of human cytosolic 17beta-HSD1 using [2,4,6,7-3H]E1 as substrate at 1 uM after 10 mins by radioflow detector
T2 sequence (whole entry): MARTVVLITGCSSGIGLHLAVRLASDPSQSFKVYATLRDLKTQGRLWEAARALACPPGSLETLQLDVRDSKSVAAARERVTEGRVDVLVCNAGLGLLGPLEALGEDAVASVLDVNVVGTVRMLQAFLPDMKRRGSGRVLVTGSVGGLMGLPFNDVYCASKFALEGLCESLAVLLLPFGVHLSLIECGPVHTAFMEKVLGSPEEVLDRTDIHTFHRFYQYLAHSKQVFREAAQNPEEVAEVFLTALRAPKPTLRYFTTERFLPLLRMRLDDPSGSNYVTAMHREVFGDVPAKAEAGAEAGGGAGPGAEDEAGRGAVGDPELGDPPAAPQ
Procedure, shortened: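 Cytosolic fraction from human placenta incubated with NADH (500 µM), test compound and unlabeled plus [2,4,6,7-3H]-E1 (final 500 nM) for 10 min at 37 °C. Phosphate buffer 50 mM with 20% glycerol and 1 mM EDTA. Inhibitor stocks made in DMSO. Reaction stopped with HgCl2 and extracted with ether. Substrate and product separated by HPLC with radioflow detection. Values are the mean of three determinations.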

inhibition [1]: 75%
inhibition [2]: 94%
SMILES: Cc1cc(-c2ccc(C(=O)c3cccc(O)c3)s2)ccc1O
